Experimental findings from article PMC11057141, “Untangling the mess of CGRP levels as a migraine biomarker: an in-depth literature review and analysis of our experimental experience” (The Journal of Headache and Pain, 2024) are described below.

Data set [1] is described as follows: Influence of sample processing time: serum kept at 4°C before freezing at -80°C, sandwich ELISA. In kind it is in vitro ADME. Conditions: human serum, no peptidase inhibitor, ELISA Abbexa (alpha) / CUSABIO (beta), mean ± SD, 6 subjects, triplicate. On the procedure:
(§1) We tested 4 different ELISA kit references with serum samples, 2 based on competitive ELISA (Biorbyt, UK, ref: orb438605; BMA Biomedicals, Switzerland, ref: S-1198), specifically designed for the detection of total-CGRP, and 2 based on ELISA sandwich (Abbexa, UK, ref: abx257902; CUSABIO, China, ref: CSB-E08210h), designed for the detection of alpha and beta-CGRP, respectively. All 4 of these products were assayed multiple times (at least 4 for each kit reference) to analyse the optimal dilutions of the samples, their reproducibility and their reported concentrations. All the procedures were carried out strictly following the manufacturer’s instructions of use of their products, they were performed by the same researcher, using the same equipment, and in the same facilities. Regarding the last step of the ELISA processes, in which manufacturers give a window of time, specifying that the user must determine the optimum, we incubated the substrate for 15 min for alpha-CGRP and for 20 min for beta-CGRP. All the samples were measured in duplicate, obtained from morning blood extractions, 9–12 am, from patients in a fast of at least 12h. These samples were let to clot for 10–15 min, centrifuged at 3500 rpm for 10 min and then immediately stored at -80°C until assayed. A standard curve was generated for every single batch, and they were calculated using a 4-parameter logistic (4-PL) regression with r^2 > 0.999.
We recruited 6 individuals without history of migraine and subjective absence of headache at the day of the sampling (50% male; age range: 24–65 years). […] The blood was then let to clot for 10 min at room temperature, then centrifuged at 3500 rpm for 10 min to obtain serum. Serum was divided into 4 tubes. First one was immediately stored at -80°C, the other three were kept in the refrigerator at 4°C for, 2, 4 and 24 h respectively before frozen. None of the samples were added peptidase inhibitor. These samples were measured by triplicate.
A general note: In an ELISA, binding on a coated surface is turned into a signal by an enzyme label.

Data set [2] can be described thus: Long-term storage of serum at -80°C, sandwich ELISA. Conditions: human serum, ELISA Abbexa (alpha) / CUSABIO (beta), mean ± SD. In kind it is in vitro ADME. How it is done:
as §1, with “These samples were let to clot for 10–15 min, centrifuged at 3500 rpm for 10 min and then immediately stored at -80°C until assayed.” left out, “0.999. […]” for “0.999.”

“alpha-CGRP: endogenous neuropeptide, result of alternative splicing of the calcitonin gene (CALCA) transcript, 37 amino acids”: the “serum concentration after 2 h at 4°C” value in data set [1] (2 h at 4°C before -80°C) came out at 0.0299 ± 0.0186 ng/mL. Moreover, in data set [1] (4 h at 4°C before -80°C), the “serum concentration after 4 h at 4°C” value came out at 0.0304 ± 0.0182 ng/mL. For the same substance, the “serum concentration after 24 h at 4°C” value in data set [1] (24 h at 4°C before -80°C) amounted to 0.0302 ± 0.0196 ng/mL. For the same substance, the “serum concentration, deep frozen right away” value in data set [1] (clot 10 min RT, 3500 rpm 10 min, immediately -80°C) came to 0.0292 ± 0.0206 ng/mL. For the same substance, the “serum concentration, measured before one month of storage at -80°C” value in data set [2] (11 samples) is 0.0423 ± 0.0151 ng/mL. Moreover, the “serum concentration after more than 6 months of storage at -80°C” value in data set [2] (same 11 samples, p < 0.01 vs first measurement) was determined as 0.0286 ± 0.0113 ng/mL.
